For 45 compounds, % cells with GFP-LC3 spots results are on record in PubChem BioAssay AID463193 (University of Pittsburgh Molecular Library Screening Center, 2010).

This is a selection; strong and weak results do not stand in their true shares. Active and inactive are the calls of the source.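 The calls were made as follows: active = percentage of spot-positive cells more than 3 SD above its plate mean, without a fluorescence outlier flag or 80% toxicity; inconclusive = no clear call, values can overlap the other calls; inactive = the rest.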

The nature of the assay: GFP-LC3 puncta formation changes – imaging, high-content, MEF GFP-LC3, primary screen (AID 463193).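 Also: spot-positive cell cutoff set from DMSO-treated cells.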 Particulars: autophagy, at 10 µM, hits give high values.
As for `Cc1nn(-c2ccccc2)c2c1P(=O)(N1CCOCC1)N(C)C(c1ccccc1)=N2` (stereo not given), the % cells with GFP-LC3 spots was inactive: 10.7%.

In the case of `CC1CCC(C(C)C)C(OP(=O)(Nc2ccccn2)c2ccccc2)C1` (stereo not given), the % cells with GFP-LC3 spots is inactive: 1.4%.

`CN(C)C1(CNC(=O)c2ccc(S(C)(=O)=O)cc2)CCCCC1`: the % cells with GFP-LC3 spots is inactive: 15.8%.

In the case of `Cc1nc2ccc3ccccc3c2s1.O=[N+]([O-])c1cc([N+](=O)[O-])c(O)c([N+](=O)[O-])c1`, the % cells with GFP-LC3 spots is inactive: 1.2%.

Take `CC1(CBr)Cn2c(nc3ccccc3c2=O)S1` (stereo not given): the % cells with GFP-LC3 spots was inactive: 3.57%.

For `CC(C)/C=N\N=C(\N)N[N+](=O)[O-]`, the % cells with GFP-LC3 spots was inactive: 7.02%.

Turning to `O=P1(Nc2ccccn2)COc2ccccc2OC1`, the % cells with GFP-LC3 spots is inactive: 2.76%.

Regarding `O=[N+]([O-])c1cc([N+](=O)[O-])c(-n2nnc3ccccc32)c([N+](=O)[O-])c1`, the % cells with GFP-LC3 spots was inactive: 1.25%.

As to `Clc1n[nH]nc1-c1nn[nH][15n]1`, the % cells with GFP-LC3 spots was inactive: 9.97%.

On to `CCOC(=O)c1ccc(NP(C)(=O)Oc2ccc(OC)cc2)cc1` (stereo not given), for which the % cells with GFP-LC3 spots was inactive: 5.65%.

As to `CCOP(C)(=S)SCC(=O)NC(C)C(=O)O` (stereo not given), the % cells with GFP-LC3 spots was inactive: 1.26%.

With `CP(=O)(Nc1ccccn1)Oc1ccc(Cl)cc1` (stereo not given), the % cells with GFP-LC3 spots was inactive: 0.456%.

As to `CCC(C)N(CC(C)C)C(=S)SC(NC(C)=O)C(Cl)(Cl)Cl` (stereo not given), the % cells with GFP-LC3 spots was inactive: 3.72%.

As to `COP1(=S)c2c(C)nn(CCC#N)c2N=C(c2ccc(F)cc2)N1C` (stereo not given), the % cells with GFP-LC3 spots is inactive: 10.8%.

Take `Cc1cccc(C)c1OP(C)(=O)Nc1ccc(SC(F)(F)F)cc1` (stereo not given): the % cells with GFP-LC3 spots was inactive: 5.59%.

Regarding `CP(=O)(Oc1ccccc1)OC(c1ccccc1)C(F)(F)F` (stereo not given), the % cells with GFP-LC3 spots was inactive: 0%.

Take `O=C(COc1ccccc1)OC1CN2CCC1CC2` (stereo not given): the % cells with GFP-LC3 spots was inactive: 2.54%.

Regarding `CP(=O)(NC(=O)Nc1ccccc1)Oc1ccccc1` (stereo not given), the % cells with GFP-LC3 spots is inactive: 5.95%.

As to `Cc1cc(C)cc(OP(C)(=O)Nc2ccc(SC(F)(F)F)cc2)c1` (stereo not given), the % cells with GFP-LC3 spots is inactive: 17.8%.

Take `CP(=S)(Nn1cnnc1)Oc1ccccc1` (stereo not given): the % cells with GFP-LC3 spots is inactive: 3.58%.

On to `CP(=O)(Nc1ccccc1Br)Oc1ccccc1` (stereo not given), for which the % cells with GFP-LC3 spots was inactive: 1.93%.

With `O=P(Nc1ccccn1)(c1cccc2ccccc12)c1cccc2ccccc12`, the % cells with GFP-LC3 spots was inactive: 17%.

In the case of `Cc1cc(SC(NC=O)C(Cl)(Cl)Cl)ncn1` (stereo not given), the % cells with GFP-LC3 spots is inactive: 5.89%.

As for `COc1ccccc1OP(C)(=O)Nc1ccccc1` (stereo not given), the % cells with GFP-LC3 spots was inactive: 25.2%.

As for `Cc1cc(SC(NC(=O)c2ccccc2)C(Cl)(Cl)Cl)nc(C(C)C)n1` (stereo not given), the % cells with GFP-LC3 spots is inactive: 5.51%.

For the compound `COc1ccccc1OP(C)(=O)Nc1ccc(C)cc1` (stereo not given), the % cells with GFP-LC3 spots was inactive: 2.37%.

On to `Cc1ccc(NP(C)(=O)Oc2ccccc2)c(C)c1` (stereo not given), for which the % cells with GFP-LC3 spots is inactive: 7.19%.

As to `CCOC(=O)c1ccc(NP(C)(=O)Oc2ccccc2)cc1` (stereo not given), the % cells with GFP-LC3 spots is inactive: 4.15%.

Turning to `ClCCSc1nnc(-c2cccnc2)o1`, the % cells with GFP-LC3 spots is inactive: 11.8%.

On to `Cc1cc(C)cc(OP(C)(N)=O)c1` (stereo not given), for which the % cells with GFP-LC3 spots was inactive: 1.5%.

Regarding `COc1ccccc1OP(C)(=O)Nc1cc(Cl)ccc1C` (stereo not given), the % cells with GFP-LC3 spots is inactive: 0.791%.

As to `CC(C)NC(=O)NP(=O)(Oc1ccccc1)Oc1ccccc1`, the % cells with GFP-LC3 spots was inactive: 7.99%.

In the case of `CCN(CC)C(=S)SC(NC=O)C(Cl)(Cl)Cl` (stereo not given), the % cells with GFP-LC3 spots was inactive: 1.54%.

For the compound `COc1ccc(OP(C)(=O)Nc2cccc(F)c2)cc1` (stereo not given), the % cells with GFP-LC3 spots was inactive: 2.61%.

On to `O=[N+]([O-])c1cc([N+](=O)[O-])c(-c2ccn[nH]2)s1`, for which the % cells with GFP-LC3 spots was inactive: 23.3%.

In the case of `O=[N+]([O-])c1ccc2c(c1)C=Nc1ccccc1O2`, the % cells with GFP-LC3 spots was inactive: 5.61%.

Turning to `Cc1ccc2nc3c(c(C)c2c1)CC(C(Cl)Cl)S3` (stereo not given), the % cells with GFP-LC3 spots was inactive: 2.47%.

Consider `CC(C)(C)c1ccc(OP(C)(=O)Nc2ccc(SC(F)(F)F)cc2)cc1` (stereo not given), for which the % cells with GFP-LC3 spots was inactive: 9.81%.

As to `Cc1cccc(C)c1OP(C)(N)=O` (stereo not given), the % cells with GFP-LC3 spots was inactive: 8.98%.

Turning to `COc1ccc(N/C(=N/P(=O)(N2CCOCC2)N2CCOCC2)N2CCOCC2)cc1`, the % cells with GFP-LC3 spots is inactive: 2.58%.

With `O=C(OC1CN2CCC1CC2)C12CC3CC(CC(C3)C1)C2` (stereo not given), the % cells with GFP-LC3 spots is inactive: 7.75%.

Turning to `CCN(CC)CCCOC(=O)C(O)(c1ccccc1)c1ccccc1`, the % cells with GFP-LC3 spots is inactive: 0.921%.

Turning to `Cc1cc(=O)[nH]c(N[N+](=O)[O-])n1`, the % cells with GFP-LC3 spots is inactive: 1.66%.

In the case of `Cc1c2c(nc3ccccc13)SC(C(Cl)Cl)C2` (stereo not given), the % cells with GFP-LC3 spots is inactive: 4.4%.

As to `COc1ccc2nc(NP(=O)(c3ccccc3)c3ccccc3)sc2c1`, the % cells with GFP-LC3 spots is inactive: 1.29%.
